Key:
[1] = target: CYP1A2 (Homo sapiens, UniProt P05177); assay: Cytochrome P450 inhibition in pooled human hepatic microsome, CYP1A2; conditions: read-out: Cytochrome P450 IC50 1A2
[2] = target: CYP2C19 (Homo sapiens, UniProt P33261); assay: Cytochrome P450 inhibition in pooled human hepatic microsome, CYP2C19; conditions: read-out: Cytochrome P450 IC50 2C19
[3] = target: CYP2D6 (Homo sapiens, UniProt P10635); assay: Cytochrome P450 inhibition in pooled human hepatic microsome, CYP2D6 (dextromethorphan O-demethylation); conditions: read-out: Cytochrome P450 IC50 2D6
[4] = target: CYP3A4 (Homo sapiens, UniProt P08684); assay: Cytochrome P450 inhibition in pooled human hepatic microsome, CYP3A4; conditions: read-out: Cytochrome P450 IC50 3A4
[5] = target: CYP2C9 (Homo sapiens, UniProt P11712); assay: Cytochrome P450 inhibition in pooled human hepatic microsome, CYP2C9; conditions: read-out: Cytochrome P450 IC50 2C9

By UniProt entry, the sequences of proteins in these tests, tags left out.
UniProt P05177, whole entry, looked up: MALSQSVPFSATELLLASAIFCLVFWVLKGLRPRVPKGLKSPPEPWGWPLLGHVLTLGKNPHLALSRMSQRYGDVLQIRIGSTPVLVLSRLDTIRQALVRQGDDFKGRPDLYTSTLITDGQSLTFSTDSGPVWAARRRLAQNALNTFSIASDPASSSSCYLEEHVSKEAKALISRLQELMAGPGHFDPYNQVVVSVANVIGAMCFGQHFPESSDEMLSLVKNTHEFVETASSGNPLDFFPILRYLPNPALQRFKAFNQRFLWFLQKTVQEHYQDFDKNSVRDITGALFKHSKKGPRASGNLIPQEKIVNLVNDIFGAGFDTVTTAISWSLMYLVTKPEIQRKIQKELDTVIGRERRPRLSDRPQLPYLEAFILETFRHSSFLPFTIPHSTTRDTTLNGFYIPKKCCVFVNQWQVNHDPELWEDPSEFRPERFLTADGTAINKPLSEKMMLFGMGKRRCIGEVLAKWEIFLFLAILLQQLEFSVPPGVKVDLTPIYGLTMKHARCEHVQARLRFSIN
UniProt P33261, whole entry, looked up: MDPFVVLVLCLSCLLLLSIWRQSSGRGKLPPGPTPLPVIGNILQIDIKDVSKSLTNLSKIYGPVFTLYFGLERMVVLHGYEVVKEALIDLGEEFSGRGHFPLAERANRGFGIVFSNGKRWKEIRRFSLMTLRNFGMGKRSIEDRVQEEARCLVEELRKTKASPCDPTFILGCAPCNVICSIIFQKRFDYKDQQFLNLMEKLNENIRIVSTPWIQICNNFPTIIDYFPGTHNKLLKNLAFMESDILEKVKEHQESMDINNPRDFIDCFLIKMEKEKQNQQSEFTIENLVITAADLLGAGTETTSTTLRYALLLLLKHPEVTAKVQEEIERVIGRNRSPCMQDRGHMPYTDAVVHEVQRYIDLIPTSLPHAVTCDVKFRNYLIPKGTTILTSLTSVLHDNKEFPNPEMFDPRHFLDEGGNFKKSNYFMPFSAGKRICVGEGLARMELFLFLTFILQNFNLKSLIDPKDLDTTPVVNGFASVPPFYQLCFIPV
UniProt P10635, whole entry, looked up: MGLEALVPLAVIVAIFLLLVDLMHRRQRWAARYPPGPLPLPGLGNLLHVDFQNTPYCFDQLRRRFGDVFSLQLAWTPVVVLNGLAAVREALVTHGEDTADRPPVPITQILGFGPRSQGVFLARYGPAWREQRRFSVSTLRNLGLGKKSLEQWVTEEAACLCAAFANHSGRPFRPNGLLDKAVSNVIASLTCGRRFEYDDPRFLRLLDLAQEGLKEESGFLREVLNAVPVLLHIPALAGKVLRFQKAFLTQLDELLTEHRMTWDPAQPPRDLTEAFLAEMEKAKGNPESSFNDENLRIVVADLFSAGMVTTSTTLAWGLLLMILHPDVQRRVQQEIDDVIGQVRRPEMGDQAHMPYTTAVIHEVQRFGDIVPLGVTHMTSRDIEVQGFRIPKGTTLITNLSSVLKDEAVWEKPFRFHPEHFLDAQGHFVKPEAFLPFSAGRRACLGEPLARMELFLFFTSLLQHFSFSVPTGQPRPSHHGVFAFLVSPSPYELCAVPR
UniProt P08684, whole entry, looked up: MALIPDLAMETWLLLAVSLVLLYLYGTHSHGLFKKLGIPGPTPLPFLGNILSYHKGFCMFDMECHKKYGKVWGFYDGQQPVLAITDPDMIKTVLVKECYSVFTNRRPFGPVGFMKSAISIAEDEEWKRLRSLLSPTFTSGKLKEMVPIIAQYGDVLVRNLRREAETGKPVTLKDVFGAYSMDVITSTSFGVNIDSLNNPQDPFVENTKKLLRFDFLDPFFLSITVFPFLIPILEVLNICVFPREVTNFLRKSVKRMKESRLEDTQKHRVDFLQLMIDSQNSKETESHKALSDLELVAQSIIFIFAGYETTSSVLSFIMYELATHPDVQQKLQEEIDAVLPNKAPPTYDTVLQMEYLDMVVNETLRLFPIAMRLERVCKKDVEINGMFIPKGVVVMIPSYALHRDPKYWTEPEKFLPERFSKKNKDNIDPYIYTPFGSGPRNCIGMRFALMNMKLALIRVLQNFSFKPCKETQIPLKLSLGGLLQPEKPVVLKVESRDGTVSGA
UniProt P11712, whole entry, looked up: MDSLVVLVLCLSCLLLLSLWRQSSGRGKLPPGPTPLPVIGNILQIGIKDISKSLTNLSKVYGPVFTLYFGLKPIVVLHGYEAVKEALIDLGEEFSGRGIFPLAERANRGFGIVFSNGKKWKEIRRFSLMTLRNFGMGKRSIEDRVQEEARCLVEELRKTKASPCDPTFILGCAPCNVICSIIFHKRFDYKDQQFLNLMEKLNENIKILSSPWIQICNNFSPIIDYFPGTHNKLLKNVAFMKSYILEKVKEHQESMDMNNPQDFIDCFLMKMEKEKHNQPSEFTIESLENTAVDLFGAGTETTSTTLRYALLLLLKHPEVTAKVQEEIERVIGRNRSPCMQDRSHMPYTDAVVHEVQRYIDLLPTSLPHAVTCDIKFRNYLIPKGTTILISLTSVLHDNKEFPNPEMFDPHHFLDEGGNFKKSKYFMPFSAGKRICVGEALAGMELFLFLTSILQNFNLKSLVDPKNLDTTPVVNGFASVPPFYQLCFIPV

Measured: IC50

C/C(=N\OCC(=O)O)c1nc2ccccc2n([C@H]2C[C@H]3CCC[C@@H](C2)N3CC[C@@H]2CC[C@H]3C[C@@H]2C3(C)C)c1=O
> 20 µM: all assays above
